{"source": "patent US10166211B1", "about": "“Nitric oxide releasing compound, pharmaceutical composition, use and synthesis method thereof” (NATIONAL CHIAO TUNG UNIVERSITY, priority 2017, dated 2019)", "assay": "Diabetic mouse hindlimb ischemia model, body weight", "assay_type": "in vivo", "conditions": "type 2 diabetic mice with hindlimb ischemia, 7.8 μM, experimental period up to 21st day, FIG. 21", "from_the_text": "In this study, diabetic mice were subjected to hindlimb ischemia surgery. Type 2 diabetic mice (6 in each group) were fixed on the operating table and anesthetized (1-3% isoflurane/100% oxygen at a flow rate of 1 L/min). After the mice were fixed, the areas for surgery were shaved. A 1 cm long incision was cut from the knee along the leg with a surgical knife, the incision was washed with normal saline and cotton, and then the fat tissue around the thigh muscles was removed. After the fat tissue was removed and the femoral artery was exposed, the upper and lower ends of the femoral artery were tied with 7-0 surgical suture to ensure hindlimb ischemia. Finally the wound was washed with normal saline and stitched. After the mice were recovered, they were respectively administrated with 7.8 μM nitric oxide releasing reagents (RRE-1 and VEGF), and the weights of the mice were recorded. The diabetic mice were sacrificed on the 6th and 21st day. The tissue sections of the hindlimbs were taken for immunohistochemistry (IHC). The expression of eNOS, CD31, CD34, MMP-11 and VEGFA were observed respectively. In this experiment, the mice administrated with PBS were the control group.", "data": [{"substance": "VEGF", "values": [{"measurement": "body weights of the diabetic mice", "value": "steadily increased"}]}]}
